# Reference: patent US9649382B2, “Topical bioadhesive formulations” (CAMURUS AB, priority 2005, dated 2017)
# Assay: Depot injected into rat periodontal pocket
# Type: in vivo
# Conditions: 100 μL PC/GDO/EtOH/chlorhexidine (35/53/10/2) injected into rat periodontal pocket
# Protocol: In order to treat periodontitis or perimplantitis an antibacterial formulation is injected in the periodontal pocket, and a prolonged effect of the formulation is normally desired. 100 μL of a formulation as prepared in Example 1, with the addition of the antibiotic chlorohexidine (PC/GDO/EtOH/chlorhexidine (35/53/10/2)), is injected via a syringe into a rat peridontal pocket. The injected composition is observed to transform from the low viscous formulation, and which initially spreads out to fill voids, to form a solid mass by uptake of gingival fluids. An antibacterial depot system is thus provided.
# An alternate antibacterial formulation was provided by a formulation prepared as described in Example 1 and containing the antibacterial detergent Gardol (Glycine, N-methyl-N-(1-oxododecyl)-, sodium salt) (PC/GDO/EtOH/Gardol (34/51/10/5)). This formulation is injected into the rat periodontal pocket.
# Gardol is observed to remain at clinically effective levels in the GCF of the periodontal pockets for a prolonged period (several days).
substance,measurement,value
chlorhexidine,time chlorhexidine remains at clinically effective levels in the GCF of the periodontal pockets,over 1 week
